# Apparent affinities of Ab-14 variants for a coronavirus HR2 peptide

Antigen: PDVDLGDISGINAS, a 14-residue peptide of the SARS-CoV-2 spike HR2 region.

Parent: Ab-14, a human scFv built as VH, three GGGGS repeats, VL. Only the CDRs of the light chain vary.
VH: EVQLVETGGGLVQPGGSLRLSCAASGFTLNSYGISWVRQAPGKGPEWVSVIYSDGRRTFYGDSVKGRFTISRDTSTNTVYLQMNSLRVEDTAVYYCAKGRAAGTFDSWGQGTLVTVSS
VL: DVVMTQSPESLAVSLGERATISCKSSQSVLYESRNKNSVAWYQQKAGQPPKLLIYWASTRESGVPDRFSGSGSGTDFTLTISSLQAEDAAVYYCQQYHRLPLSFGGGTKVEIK

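The parent was found by panning a naive human phage display library on the peptide. These sequences belong to a second round, designed from the earlier measurements on random variants of the parent. Group labels follow the data file (Ctrl: baseline library sampled from a position-specific scoring matrix, with some repeated check sequences; En: ensemble of fine-tuned language models; GP: Gaussian process model; HC: hill climbing; Gen: genetic algorithm; Gibbs: Gibbs sampling; a sequence that several methods proposed may carry one label only). Affinity was read by AlphaSeq, a pooled yeast mating assay with surface-displayed partners. Mating (16 h, 30 °C) was followed by selection of diploids and sequencing of their barcodes. A regression on co-assayed BCL2-family reference pairs converts the normalised counts of each replicate to an apparent Kd. Each pool was mated in six replicate cultures.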

Each variant is given by its three light chain CDRs, as the data file delimits them; those of the parent are KSSQSVLYESRNKNSVA, WASTRES, QQYHRLPLS. Variants here have more than six changes. Numbers give log10(Kd / nM), so 0 is 1 nM and 3 is 1 µM. Smaller is tighter. Replicates are averaged; those with no signal do not enter the mean. "ND" marks a missing value. The strain was present, yet no cells mated with the target were sequenced in that replicate, which points to weak or no binding.

CDR-L1,CDR-L2,CDR-L3,group,"log10 Kd, replicates",mean log10 Kd (nM)
KLDYLNGYSDIGGNSIA,DVSTAGM,QQYIRLPLS,En_Gibbs,0.69 0.99 0.91 0.74 0.47 0.86,0.78
IVSQLMLWGMHAKNSIA,EAETRPN,QQYDRLPLI,En_Gen,ND ND ND ND ND ND,ND
KLRLHNLMFYQNENSIA,GVSNRAY,QQYYHLPLN,En_Gibbs,1.05 0.47 1.13 0.68 1.01 1.06,0.90
KLVNFMNRGTHHTSNIA,DAQNRSD,QQYARLPLA,En_Gen,0.71 1.10 1.08 0.72 0.86 1.20,0.94
MVSQLMLWGLHAKNSIA,EAETRLN,QQYDRLPLF,En_Gen,ND 0.43 ND 1.11 2.21 ND,1.25
LLNAEDQGDDRGMNNIA,GGDTKMA,QQYHRLPLS,En_Gibbs,0.17 0.08 0.20 -0.05 0.02 0.27,0.11
NLSDGEMYENATRSHIA,DTSMRDF,QQYNRLPLI,En_Gibbs,1.38 0.51 0.96 1.33 0.91 1.63,1.12
KVSEFMRGLMMRTDSIA,DNVTREN,QQYDRLPLS,En_Gen,2.84 1.78 2.65 ND 3.92 2.87,2.81
QISGITGHMSMIKNNVA,EMETREN,QQYERLPLS,En_Gen,0.41 0.15 0.05 0.00 0.33 0.35,0.21
TIGQSLMQGIRNRSNVA,EVSQRLN,QQYDRLPLE,En_Gen,1.63 1.60 1.55 1.29 2.04 1.76,1.64
KLGEKERMNGMANKNVA,AMNTRVD,QEYHRLPLI,En_Gibbs,0.17 0.10 -0.02 0.11 0.09 -0.02,0.07
KLSASQLYWSRNFNSVA,QASTRET,QQYHRLPLS,GP_Gibbs,1.58 1.43 3.27 1.04 1.97 1.13,1.74
MISQLYNMGSFAINSVA,QASQRNE,QQYDRLPLI,En_Gen,ND ND 1.99 2.13 ND ND,2.06
TISTFMRYESSLKNAIA,NAQTRES,QQYHRLPIS,En_HC,ND ND ND ND ND ND,ND
KLSMLTEMEHVNRNSVA,ELVTRMA,QQYNRLPLS,En_Gen,0.60 0.28 0.47 0.29 0.19 0.31,0.36
MFSSLMEYGSRYKNSVA,QASVREN,QQYHWLPLS,En_HC,0.55 0.77 0.51 0.45 0.40 0.48,0.53
KLTISGTLTHEKAFSIA,NGTCKAY,QQYAHLPLS,En_Gibbs,1.97 1.59 1.69 1.38 1.66 1.98,1.71
KLYQSVGTLSHNKQSIA,DMDRRED,QQYHRLPLS,En_HC,-0.02 -0.01 -0.45 -0.30 -0.37 -0.02,-0.20
ALSQLMDMTSRNVNSVA,DLTTREN,QQYHRLPLS,En_HC,0.70 0.91 0.41 0.83 0.63 1.15,0.77
KLEFSALEESRNPNSVA,SASTRES,QDYHRLPLS,GP_Gibbs,0.37 -0.12 -0.12 -0.15 -0.09 0.13,0.00
QITEEQSMRTQGNWNIA,QAEQKVH,QQYNRLPLA,En_Gibbs,2.33 0.25 0.95 1.11 0.81 0.29,0.96
KDSWSVNYESMLKNSVA,WASTRES,QQYWREPLS,Ctrl,ND ND ND ND ND ND,ND
RFPEHLLMLESKIYNIA,NATKTME,QQYFRLPLV,En_Gibbs,0.89 0.23 0.31 0.32 0.91 0.44,0.51
MISDLTMYGSRNGNSVA,DLSTRGS,QQYHRLPLS,En_HC,0.41 0.46 0.54 0.53 0.02 0.26,0.37
TMNVELAYGVPEMGNVA,AGSQKLA,QQYYRLPLS,En_Gibbs,0.79 0.12 0.10 0.75 0.13 0.59,0.41
KMQQLVWYEQRNKNSVA,DGSTRES,QQYHRLPLS,GP_Gibbs,-0.19 -0.21 -0.43 -0.35 -0.39 -0.18,-0.29
SITYLDNPGSQGHNNIA,SGSCRAE,QQYIRLPLI,En_Gibbs,0.49 0.81 0.54 0.33 0.50 1.33,0.67
TITQMTSLFSQSINNVA,EVSTREP,QQYDRLPLS,En_Gen,1.01 1.22 1.12 1.45 0.99 0.91,1.12
TISQVMNTMTRHGNNVA,DLQEREN,QQYFRLPLS,En_Gen,0.29 -0.12 0.45 0.33 0.76 1.00,0.45
TISTSANYESTNKNSVA,ELTTRGS,QQYERLPLS,En_HC,1.11 0.98 1.41 1.10 1.27 1.26,1.19
KLSFTSEMEHVNRNSVA,ELVTRMS,QQYNRLPLS,En_Gen,0.92 0.63 0.15 -0.36 0.42 0.52,0.38
KAQLDHEGQPRNHNSIA,EGISRTT,QQYFRLPLM,En_Gibbs,ND ND ND ND 1.60 2.83,2.22
TLSQMSGVEAVKHNSVA,ENSTREK,QQYDRLPLA,En_Gen,1.53 0.63 0.85 1.01 0.28 1.07,0.89
KITQMVTGESHNKNSIA,QMTTREG,QQYHRLPLS,En_HC,2.08 1.66 1.98 1.86 1.80 1.00,1.73
KLSQQMLYESRNHNNVA,AASTRED,QQYHRLPLS,GP_Gibbs,-0.28 -0.40 -0.46 -0.45 -0.42 -0.07,-0.35
KLYSAKQGDIAQMQNIA,AADVLTQ,QQYNKLPLS,En_Gibbs,0.21 0.75 0.22 0.06 -0.04 0.45,0.27
IVSQLMLWGWHAKNSIA,EAQTRIQ,QQYDRLPLF,En_Gen,ND ND ND ND ND ND,ND
MMSYGWLYGSRNKRNVA,DHETRED,QQYDRLPLS,En_HC,0.47 0.28 0.27 0.10 0.25 0.17,0.26
MLQIEPNGYMGMRSNVA,DGVDVRM,QQYARLPLM,En_Gibbs,1.20 ND ND ND ND ND,1.20
QLQQVQQEDTIGEYSVA,HAEVSGR,QQYSQLPLI,En_Gibbs,ND ND ND ND 3.06 ND,3.06
TLTQVQGMESHNNNSVA,DLSTRGS,QQYHRLPLS,En_HC,1.14 1.99 1.44 1.90 2.09 1.18,1.62
HFGLATMLEEYVRNSVA,NNSTREN,QQYDRLPLS,En_Gen,1.67 2.93 2.28 4.89 2.49 3.21,2.91
MVTQMAMSGMTNKRSVA,NAETRED,QQYFRLPLI,En_Gen,0.44 0.05 0.18 -0.17 0.20 0.21,0.15
HMSMLTLQGMRARNSVA,QMTTREN,QQYDRLPLA,En_Gen,0.27 0.52 0.14 0.04 0.04 0.51,0.25
LLWQDFYNGRSQANAVA,EGNQLAS,QQYARLPLV,En_Gibbs,0.71 0.54 0.70 0.14 0.50 0.57,0.53
KLLQVTENMSLNRNSVA,HMSTRED,QQYHRLPLS,En_HC,0.44 0.50 0.37 0.84 1.04 1.02,0.70
TLYGLTNSMLKNKDNVA,EMSTREA,QQYDRLPLA,En_Gen,0.57 0.57 0.38 0.43 0.65 0.97,0.60
KLSMSYRLETEEKNSIA,ELVTRMS,QQYHRLPLS,En_HC,1.82 1.59 1.19 0.95 1.33 1.26,1.36

Repeated from above, the 4 best binders with a signal in all replicates:

CDR-L1,CDR-L2,CDR-L3,group,"log10 Kd, replicates",mean log10 Kd (nM)
KLSQQMLYESRNHNNVA,AASTRED,QQYHRLPLS,GP_Gibbs,-0.28 -0.40 -0.46 -0.45 -0.42 -0.07,-0.35
KMQQLVWYEQRNKNSVA,DGSTRES,QQYHRLPLS,GP_Gibbs,-0.19 -0.21 -0.43 -0.35 -0.39 -0.18,-0.29
KLYQSVGTLSHNKQSIA,DMDRRED,QQYHRLPLS,En_HC,-0.02 -0.01 -0.45 -0.30 -0.37 -0.02,-0.20
KLEFSALEESRNPNSVA,SASTRES,QDYHRLPLS,GP_Gibbs,0.37 -0.12 -0.12 -0.15 -0.09 0.13,0.00

Empty control strains, which show no peptide, gave a signal in 4% of pairings with all light chain designs; the median was 2.64 and 95% of these signals were weaker than 1.59. No background was subtracted. In the paper, a design with two or fewer of six values counts as a poor binder. A sequence measured in both rounds can read differently, since the two assays cover different ranges.

Source: Li et al. 2023 (doi:10.1038/s41467-023-39022-2), MIT Lincoln Laboratory and A-Alpha Bio; data file from the FLAb repository.